Test results as given in patent publication US20040175796A1 (SOLVAY PHARMACEUTICALS B V, published 2004).

Chains of the proteins cited; added tags and fusions are not shown. A line that says so, or that is headed by a name, gives the form on record, which may keep a tag or linker.
UniProt Q9GZQ4, other isoform, or with tags, fused parts or gaps: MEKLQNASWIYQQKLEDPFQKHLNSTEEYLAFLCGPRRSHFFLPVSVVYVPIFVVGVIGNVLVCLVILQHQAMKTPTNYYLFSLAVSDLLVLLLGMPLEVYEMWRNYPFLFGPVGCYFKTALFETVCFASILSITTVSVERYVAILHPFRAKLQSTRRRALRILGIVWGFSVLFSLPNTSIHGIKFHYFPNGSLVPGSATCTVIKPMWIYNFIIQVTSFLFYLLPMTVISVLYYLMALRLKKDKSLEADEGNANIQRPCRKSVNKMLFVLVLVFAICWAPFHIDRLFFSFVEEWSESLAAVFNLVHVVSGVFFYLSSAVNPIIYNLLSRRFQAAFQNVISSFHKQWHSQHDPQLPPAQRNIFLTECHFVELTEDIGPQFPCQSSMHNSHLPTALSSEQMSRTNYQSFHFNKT

Target: IGS4A (IGS4APROT), human G-protein coupled receptor IGS4, polymorphic form A (human, UniProt Q9GZQ4 4-415)
Assay: cell-based or functional assay

EC50, calcium mobilisation (FLIPR): 0.485 nM
log EC50, calcium mobilisation (FLIPR): -9.3 log M
B1: porcine Neuromedin U-8 (peptide, UniProt P34964 158-165, looked up)
peptide: YFLFRPRN
modifications: C-terminal amide (the filing says mammalian neuromedins share the C-terminal sequence -Phe-Leu-Phe-Arg-Pro-Arg-Asn-amide)

EC50, calcium mobilisation (FLIPR): 658 nM
log EC50, calcium mobilisation (FLIPR): -6.18 log M
B2: porcine Neuromedin U25 (peptide, UniProt P34964 141-165, looked up)
peptide: FKVDEEFQGPIVSQNRRYFLFRPRN
modifications: C-terminal amide (the filing says mammalian neuromedins share the C-terminal sequence -Phe-Leu-Phe-Arg-Pro-Arg-Asn-amide)

Each block holds one binder with its values, some of them ahead of it.
